Assay results published in US20060159666A1, “Method of potentiating inflammatory and immune modulation for cell and drug therapy” (priority 2004, published 2006).

Key:
[1] = tested on: HUCBCs; experiment: Human cytokine antibody array of HUCBC conditioned medium; assay type: cell-based; settings: Ex Vivo 10 medium; IL-3 5 ng/mL or TPO 25 ng/mL for 5 d; 42-cytokine array
Method: The mononuclear fraction of the HUCBCs was obtained from Saneron CCEL Therapeutics, Inc. (Oldsmar, Fla.). Frozen samples were thawed in 10 mL of DMEM (Gibco), supplemented with 5% fetal bone serum (FBS, Gibco) and gentamicin (50 μg/mL, Sigma), or with Ex Vivo 10 media with gentamicin (50 μg/mL, Sigma). After centrifugation for 10 min at 200 rpm, the supernatant was removed and the cells were resuspended in 1 mL of the same medium. The viability of all samples ranged from 73% to 95% as determined by the ability to exclude trypan blue dye. Cells were then cultured for 3 to 14 d for cytokine arrays and ELISA assays; cells cultured in Ex Vivo 10 media were further stimulated with IL-3, TPO or both.
Human Cytokine Arrays: The therapeutic benefit of the HUCBCs may be through production of cytokines or chemokines at the site of injury. In order to address this, we used human cytokine arrays to establish whether the HUCBCs secreted these proteins. […]
The medium from these cultures was harvested and incubated with the array membrane to allow cytokine binding to immobilized antibodies spotted on the arrays. […] The most cytokines were recorded with 5×10^7 million HUCBCs in Ex Vivo 10 Medium alone. […]
Human Cvtokine Array. The conditioned medium from HUCBCs was analyzed for 23 different cytokines. […]

[2] = tested on: HUCBCs; experiment: 96-Chemotx migration assay of HUCBCs to recombinant chemoattractants; assay type: cell-based, human; settings: MCP-1 5-30 ng/mL, IL-3 1-10 ng/mL, TPO 10-40 ng/mL; 4 hr; ATP luminescence
Method: To examine whether MCP-1, IL-3 or TPO were chemoattractant(s) for HUCBCs, migration assays were performed. MCP-1, IL-3 and TPO were selected as chemoattractants because MCP-1 has been found in rat ischemic striatal tissue and IL-3 and TPO are often added to culture medium for maintaining long-term cultures and enhancing progenitor cell proliferation.
HUCBCs were prepared as described above and cultured for 24 hr before use. The 96-Chemotx chambers (NeuroProbe, Gaithersburg, Md.) were used for the migration assays. The chamber is a 96-well plate consisting of bottom wells to hold the unknowns or chemoattractant and a top plate, which is a polycarbonate membrane with 5 μm pore size. The chemoattractants used in this study were human recombinant MCP-1 (5, 10, 20 and 30 ng/mL; Endogen, Woburn, Mass.), IL-3 (1, 5 and 10 ng/mL), TPO (10, 25 and 40 ng/mL), and stromal cell-derived factor-1 (SCF-1; 100 ng/mL); positive control (SDF-1; Serologicals, Norcross, Ga.), along with the serum-free DMEM and Ex Vivo 10. All were pipetted (300 μL) directly into the bottom wells, in triplicate, after which the top plate was securely attached. The HUCBCs were pipetted directly into each top well at a concentration of 62,000 cells per 25 μL. […] The migration plate was read in an automated plate reader (BioTek) set to the appropriate luminescence.

B1: IL-3: cytokine known to stimulate hematopoietic cells, used as chemoattractant and culture stimulant (protein, UniProt P08700 20-152, looked up)
Interleukin-3: APMTQTTPLKTSWVNCSNMIDEIITHLKQPPLPLLDFNNLNGEDQDILMENNLRRPNLEAFNRAVKSLQNASAIESILKNLLPCLPLATAAPTRHPIHIKDGDWNEFRRKLTFYLKTLENAQAQQTTLSLAIF
[1]
  cytokine release from HUCBCs after stimulation: release of many cytokines
[2]
  HUCBC migration to chemoattractant compared to controls (DMEM and PBS): Significantly more HUCBCs migrated
